Data published in patent US7279597B1, “Phenyl amine carboxylic acid compounds and compositions for delivering active agents” (Emisphere Technologies, Inc., priority 1999, dated 2007).

Columns and labels:
[1] = Insulin oral delivery, serum human insulin by ELISA; conditions: previous experiments
Protocol: The pH was adjusted to about 7 to 8.5 with NaOH or HCl. […] About 1.25 mg insulin from an insulin stock solution (15 mg/ml made from 0.5409 g insulin and 18 ml deionized water, adjusting with HCl and NaOH to pH 8.15 and to obtain a clear solution using 40 ml concentrated HCl, 25 ml 10N NaOH and 50 ml 1N NaOH) was added to the solution and mixed by inverting.
(§1) The typical dosing and sampling protocols were as follows.
(§2) Serum insulin levels were determined with an Insulin ELISA Test Kit (Kit # DSL-10-1600 from Diagnostic Systems Laboratories, Inc., Webster, Tex.), modifying the standard protocol in order to optimize the sensitivity and linear range of the standard curve for the volumes and concentrations of the samples used in the present protocol. […] The five values for each time point were averaged and the results plotted as serum insulin concentration versus time.

[2] = Insulin pulmonary delivery, serum insulin by ELISA; conditions: rats, control group dosed insulin alone, insulin 0.03 mg/kg, 0.4 ml/kg
Protocol: as §1, §2

For human insulin, the “levels of human insulin following oral dosing with human insulin alone” value [1] was “no measurable levels” and the “Cmax (Control), serum insulin” value [2] was 5.46 μU/ml.
